Measurements published in patent US7625554B2, “Treatment of alzheimer's disease” (priority 2002, dated 2009).

Key:
[1] = test system: patients having mild to moderate cognitive decline; experiment: Rate of cognitive decline in patients with mild to moderate cognitive decline; assay type: in vivo, human; conditions: oral administration of certain dosages
[2] = test system: patients with Alzheimer's Disease; experiment: Mini-Mental Status Examination (MMSE) in the 48 week double-blind trial; assay type: in vivo, human; conditions: for MMSE exit: 48 weeks; for MMSE Entry: baseline; for MMSE Δ (exit minus entry): 48 weeks vs baseline
[3] = test system: patients with Alzheimer's Disease; experiment: Alzheimer's Disease Assessment Score, Cognitive Subscale (ADAS-Cog) in the 48 week double-blind trial; assay type: in vivo, human; conditions: for ADAS-Cog entry: baseline; for ADAS-Cog Δ (exit minus entry): 48 weeks vs baseline
[4] = test system: IL-1, IL-6, and TGF-beta; experiment: Pro-inflammatory cytokine secretion by peripheral blood mononuclear cells (ELISA); assay type: in vivo, human; conditions: oral administration of certain dosages; IL-1, IL-6, TGF-beta
Source text: Peripheral blood mononuclear cells (PMNC) were isolated from heparinized venous blood by means of a Ficoll-Hypaque density gradient (Pharmacia Fine Chemicals, Piscataway, N.J.), washed twice with Hanks balanced salt solution (GIBCO, Grand Island, N.Y.), counted, and resuspended in standard media consisting of 10% fetal calf serum (FCS) (Whittaker Bioproducts, Walkersville, Md.) in RPMI (Whitaker Bioproducts, Walkersville, Md.), with 2% glutamine (GIBCO), and 1% penicillin/streptomycin (GIBCO).
Mononuclear cells (MNC) were unstimulated or stimulated with CD3, Con A, ionomycin/PMA. Supernatants were collected 2-7 days after activation and frozen at −70° C. after centrifugation. Interleukins were measured using solid phase ELISA commercial kit assays for IL-1, IL-6 (Biosource, Camarillo, Calif.) and TGF-β kits (Genzyme, Cambridge, Mass.). To determine the amount of sICAM-1 in serum samples diluted 1/10, commercial ELISA kits were used (Bender MedSystems, Vienna, Austria). To determine the amount of IL-1, IL-6, and a1ACT in serum samples, commercial ELISA kits (above) or routine laboratory tests were performed.

[5] = test system: pro-inflammatory cytokine production; conditions: ingested, humans with multiple sclerosis; cited from earlier work
[6] = test system: MxA mRNA; experiment: MxA mRNA signal by quantitative PCR in peripheral mononuclear cells of AD patients after ingesting IFN-α; assay type: in vivo, human
[7] = AD patient 4, active arm (30K IU daily oral + donepezil 10 mg)
[8] = AD patient 6, active arm (3K IU daily oral + donepezil 10 mg)

## hrIFN-alpha: human recombinant alpha interferon (Roferon), 3,000 or 30,000 IU in 5 ml saline ingested daily, added to 10 mg donepezil
[1]
  rate of cognitive decline (in words): reduces the rate of cognitive decline
[2]; AD patient 2, active arm (30K IU daily oral + donepezil 10 mg)
  MMSE exit: 8
[2]; AD patient 2, active arm (30K IU daily oral + donepezil 10 mg), max score 30, higher = better
  MMSE Entry: 9
[2]; [7]
  MMSE exit: 10
  MMSE Δ (exit minus entry): −3
  MMSE Entry: 13
[2]; [8]
  MMSE exit: 19
  MMSE Δ (exit minus entry): −3
  MMSE Entry: 22
[3]; 3 active treatment group patients (2 with 30,000 IU, 1 with 3,000 IU) + donepezil, 48 weeks
  cognitive function as assessed by the ADAS-Cog test (in words): maintained or improved their cognitive function
[3]; AD patient 2, active arm (30K IU daily oral + donepezil 10 mg), 48 weeks
  ADAS-Cog exit: 43
[3]; AD patient 2, active arm (30K IU daily oral + donepezil 10 mg), max score 70, higher = worse
  ADAS-Cog entry: 42
[3]; AD patient 4, active arm (30K IU daily oral + donepezil 10 mg), 48 weeks
  ADAS-Cog exit: 38
[3]; [7]
  ADAS-Cog Δ (exit minus entry): −2
  ADAS-Cog entry: 40
[3]; AD patient 6, active arm (3K IU daily oral + donepezil 10 mg), 48 weeks
  ADAS-Cog exit: 12
[3]; [8]
  ADAS-Cog Δ (exit minus entry): −3
  ADAS-Cog entry: 15
[4]
  pro-inflammatory cytokine secretion by peripheral blood mononuclear cells (in words): decreases pro-inflammatory cytokine secretion
[5]
  pro-inflammatory cytokine production (in words): decreased pro-inflammatory cytokine production
[6]; 3,000 IU active treatment AD patient, ingested for 48 weeks
  levels of Mx mRNA (in words): unsustained levels of Mx mRNA
[6]; active #2, 30K IU, Apr. 18, 2002
  Mx (MxA mRNA normalized to β-actin): 2.61 % β-actin molecules
[6]; active #2, 30K IU, Dec. 13, 2001
  Mx (MxA mRNA normalized to β-actin): 2.37 % β-actin molecules
[6]; active #2, 30K IU, Jan. 23, 2002
  Mx (MxA mRNA normalized to β-actin): 3.28 % β-actin molecules
[6]; active #2, 30K IU, Jul. 31, 2001
  Mx (MxA mRNA normalized to β-actin): 3.28 % β-actin molecules
[6]; active #2, 30K IU, Mar. 06, 2002
  Mx (MxA mRNA normalized to β-actin): 2.59 % β-actin molecules
[6]; active #2, 30K IU, May 31, 2001
  Mx (MxA mRNA normalized to β-actin): 0.78 % β-actin molecules
[6]; active #2, 30K IU, Oct. 30, 2001
  Mx (MxA mRNA normalized to β-actin): 6.82 % β-actin molecules
[6]; active #2, 30K IU, Sept. 19, 2001
  Mx (MxA mRNA normalized to β-actin): 3.88 % β-actin molecules
[6]; active #4, 30K IU, Apr. 06, 2000
  Mx (MxA mRNA normalized to β-actin): 0.08 % β-actin molecules
[6]; active #4, 30K IU, Aug. 08, 2000
  Mx (MxA mRNA normalized to β-actin): 0.50 % β-actin molecules
[6]; active #4, 30K IU, Jul. 19, 2002
  Mx (MxA mRNA normalized to β-actin): 1.09 % β-actin molecules
[6]; active #4, 30K IU, May 16, 2000
  Mx (MxA mRNA normalized to β-actin): 0.19 % β-actin molecules
[6]; active #4, 30K IU, May 30, 2002
  Mx (MxA mRNA normalized to β-actin): 0.76 % β-actin molecules
[6]; active #4, 30K IU, Nov. 14, 2000
  Mx (MxA mRNA normalized to β-actin): 0.28 % β-actin molecules
[6]; active #4, 30K IU, Sept. 19, 2000
  Mx (MxA mRNA normalized to β-actin): 0.63 % β-actin molecules
[6]; active #6, 3K IU, Aug. 02, 2002
  Mx (MxA mRNA normalized to β-actin): 0.37 % β-actin molecules
[6]; active #6, 3K IU, Jan. 04, 2003
  Mx (MxA mRNA normalized to β-actin): 0.39 % β-actin molecules
[6]; active #6, 3K IU, Jun. 21, 2002
  Mx (MxA mRNA normalized to β-actin): 0.52 % β-actin molecules
[6]; active #6, 3K IU, Mar. 01, 2003
  Mx (MxA mRNA normalized to β-actin): 0.42 % β-actin molecules
[6]; active #6, 3K IU, Mar. 29, 2002
  Mx (MxA mRNA normalized to β-actin): 0.41 % β-actin molecules
[6]; active #6, 3K IU, Nov. 28, 2002
  Mx (MxA mRNA normalized to β-actin): 0.28 % β-actin molecules
[6]; active #6, 3K IU, Oct. 15, 2002
  Mx (MxA mRNA normalized to β-actin): 0.25 % β-actin molecules
[6]; active #6, 3K IU, Sept. 05, 2002
  Mx (MxA mRNA normalized to β-actin): 0.19 % β-actin molecules
